{"source": "paper PMC8015229", "about": "“Focus on Human Monoamine Transporter Selectivity. New Human DAT and NET Models, Experimental Validation, and SERT Affinity Exploration” (ACS Chemical Neuroscience, 2020)", "origin": "cited, not measured here", "target": "SERT", "conditions": "binding affinity for rat transporter; cited from earlier work", "data": [{"smiles": "CNCCC(Oc1ccccc1OC)c1ccccc1", "note": "(stereo not shown) [compound 8, nisoxetine]", "values": [{"measurement": "SERT pKi exp", "value": 6.8}]}]}
